Results published in patent publication US11173145B2, “Compounds useful as inhibitors of indoleamine 2,3-dioxygenase and/or tryptophan dioxygenase” (Board of Regents, The University of Texas System, priority 2017, dated 2021).

The chains behind the UniProt entries cited, without tags or fusion partners.
UniProt P14902, whole entry: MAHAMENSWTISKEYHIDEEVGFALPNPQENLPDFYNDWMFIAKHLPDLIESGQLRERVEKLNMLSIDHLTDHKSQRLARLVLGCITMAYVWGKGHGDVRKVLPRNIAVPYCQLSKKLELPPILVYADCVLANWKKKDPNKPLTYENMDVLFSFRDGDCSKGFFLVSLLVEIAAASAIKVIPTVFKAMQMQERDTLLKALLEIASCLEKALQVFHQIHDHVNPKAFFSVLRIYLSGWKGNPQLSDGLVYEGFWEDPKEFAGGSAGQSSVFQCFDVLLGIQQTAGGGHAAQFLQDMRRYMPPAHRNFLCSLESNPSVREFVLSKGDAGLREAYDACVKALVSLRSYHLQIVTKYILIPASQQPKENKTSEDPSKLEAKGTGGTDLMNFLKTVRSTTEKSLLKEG
UniProt P28776, whole entry: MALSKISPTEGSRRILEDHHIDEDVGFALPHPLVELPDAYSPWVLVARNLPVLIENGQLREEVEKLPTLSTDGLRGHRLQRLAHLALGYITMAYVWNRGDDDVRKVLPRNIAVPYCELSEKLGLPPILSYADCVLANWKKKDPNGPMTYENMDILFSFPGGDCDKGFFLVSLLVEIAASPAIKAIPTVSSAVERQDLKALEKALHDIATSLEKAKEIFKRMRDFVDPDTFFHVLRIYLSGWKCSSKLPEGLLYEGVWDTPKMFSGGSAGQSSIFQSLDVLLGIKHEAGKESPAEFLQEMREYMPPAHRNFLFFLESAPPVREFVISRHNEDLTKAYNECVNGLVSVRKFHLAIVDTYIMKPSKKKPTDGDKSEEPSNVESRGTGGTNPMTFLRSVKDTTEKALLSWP

Legend:
IDO1 = IDO1 (Homo sapiens, UniProt P14902); assay: IDO1 cell-based assay (HeLa cells, IFNgamma-induced, N-formylkynurenine/L-tryptophan by RFMS); conditions: 10 ng/mL IFNgamma, 24 hours
mouse IDO1 = mouse IDO1 (Mus musculus, UniProt P28776); assay: Mouse IDO1 cell-based assay (PANC02 cells, mouse IFNgamma-induced, N-formylkynurenine/L-tryptophan by RFMS); conditions: 30 ng/mL mouse IFNgamma, 48 hours

| Compound | IC50 (IDO1) [µM] | IC50 (mouse IDO1) [µM] |
| --- | --- | --- |
| Fc1ccc2nc(C(F)(F)F)cc(OC3CC4C(CCOc5ccc(Cl)cc5)C4C3)c2c1 (centres unmarked) | > 5 |  |
| CCC(NC(=O)c1ccc(Cl)cc1)[C@H]1[C@@H]2C[C@@H](C(C(=O)NC)c3ccccc3)C[C@@H]21 (relative stereo) [Compound 230] | 2 to 5 | 0.5 to 2 |
| CCC(NC(=O)c1ccc(Cl)cc1)[C@H]1[C@@H]2C[C@@H](C(C(=O)NC)c3ccccc3)C[C@@H]21 (relative stereo) [Compound 231] | > 5 | 2 to 5 |
